By UniProt entry, the sequences of proteins in these tests, tags left out. Where a name states a change or a piece, a line headed by the entry shows the natural chain unless it says otherwise.
UniProt P05106: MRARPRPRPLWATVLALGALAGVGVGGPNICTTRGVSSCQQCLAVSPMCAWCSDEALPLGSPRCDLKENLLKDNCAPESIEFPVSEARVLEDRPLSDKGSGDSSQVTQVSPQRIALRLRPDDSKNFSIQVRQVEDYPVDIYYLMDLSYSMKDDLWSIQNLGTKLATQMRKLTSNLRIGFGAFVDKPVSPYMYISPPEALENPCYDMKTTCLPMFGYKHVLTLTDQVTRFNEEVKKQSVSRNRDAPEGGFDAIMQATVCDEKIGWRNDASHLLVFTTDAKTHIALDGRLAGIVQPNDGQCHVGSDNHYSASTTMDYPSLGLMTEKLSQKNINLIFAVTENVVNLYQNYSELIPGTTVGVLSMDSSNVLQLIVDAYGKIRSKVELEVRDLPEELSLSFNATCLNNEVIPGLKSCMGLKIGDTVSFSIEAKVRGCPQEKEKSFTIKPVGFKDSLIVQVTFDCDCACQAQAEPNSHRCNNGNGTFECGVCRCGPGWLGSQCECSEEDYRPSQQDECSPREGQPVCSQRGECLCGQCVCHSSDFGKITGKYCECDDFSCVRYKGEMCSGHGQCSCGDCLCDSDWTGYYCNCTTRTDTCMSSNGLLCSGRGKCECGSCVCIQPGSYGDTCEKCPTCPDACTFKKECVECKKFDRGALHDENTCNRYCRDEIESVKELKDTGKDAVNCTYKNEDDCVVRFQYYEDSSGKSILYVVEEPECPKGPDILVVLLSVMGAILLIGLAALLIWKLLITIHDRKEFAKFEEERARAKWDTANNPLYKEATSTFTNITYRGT
UniProt P08514: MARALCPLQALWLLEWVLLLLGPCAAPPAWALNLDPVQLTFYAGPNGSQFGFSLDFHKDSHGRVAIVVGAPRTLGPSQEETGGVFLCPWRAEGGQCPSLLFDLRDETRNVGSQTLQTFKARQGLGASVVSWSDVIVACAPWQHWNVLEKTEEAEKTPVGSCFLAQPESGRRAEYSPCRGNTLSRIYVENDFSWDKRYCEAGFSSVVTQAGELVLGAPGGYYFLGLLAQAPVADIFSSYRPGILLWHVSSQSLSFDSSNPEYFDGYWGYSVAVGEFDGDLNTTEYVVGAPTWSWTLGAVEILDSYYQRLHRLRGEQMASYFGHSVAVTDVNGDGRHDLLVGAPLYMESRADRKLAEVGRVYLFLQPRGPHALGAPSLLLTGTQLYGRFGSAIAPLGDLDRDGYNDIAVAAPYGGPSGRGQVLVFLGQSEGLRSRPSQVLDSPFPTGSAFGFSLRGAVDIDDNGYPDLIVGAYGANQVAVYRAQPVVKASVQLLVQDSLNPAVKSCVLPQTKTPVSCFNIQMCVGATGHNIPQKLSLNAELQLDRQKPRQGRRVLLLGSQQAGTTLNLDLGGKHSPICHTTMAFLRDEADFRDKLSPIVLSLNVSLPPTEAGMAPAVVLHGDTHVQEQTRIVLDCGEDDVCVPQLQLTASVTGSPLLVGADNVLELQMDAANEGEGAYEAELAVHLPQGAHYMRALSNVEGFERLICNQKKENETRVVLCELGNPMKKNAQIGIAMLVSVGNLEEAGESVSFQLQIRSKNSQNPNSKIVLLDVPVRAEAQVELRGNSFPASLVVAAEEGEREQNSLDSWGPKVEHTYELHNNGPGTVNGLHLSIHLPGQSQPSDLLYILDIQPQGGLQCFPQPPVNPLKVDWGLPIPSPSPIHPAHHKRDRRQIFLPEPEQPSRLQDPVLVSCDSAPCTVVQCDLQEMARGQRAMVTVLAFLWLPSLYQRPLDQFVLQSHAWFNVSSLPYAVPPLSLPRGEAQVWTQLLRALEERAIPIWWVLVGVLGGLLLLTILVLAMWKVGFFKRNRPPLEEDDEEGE

In ChEMBL document CHEMBL3112409, “A novel class of ion displacement ligands as antagonists of the αIIbβ3 receptor that limit conformational reorganization of the receptor” (Bioorg Med Chem Lett, 2014):

Columns and labels:
[1] = biological target: Integrin alpha-IIb/beta-3 (Homo sapiens) (UniProt P05106+P08514); conditions: 20 uM
[2] = Intrinsic clearance in mouse liver microsomes; assay type: ADME, Microsome
Liver microsome = assay: Intrinsic clearance in rat liver microsomes; assay type: ADME
in vitro [3] = conditions: mouse, in vivo
in vitro [4] = conditions: human, in vivo
in vitro [5] = conditions: rat, in vivo

`CCc1nn2c(=O)cc(N3CCNCC3)nc2s1` showed an inhibition [1] of 51%.

Work on `NCC(=O)Nc1cncc(-c2nn3c(=O)cc(N4CCNCC4)nc3s2)c1` [ZALUNFIBAN] yielded a CLH [2] of 89 µL/min/mg, a CLH (Liver microsome) of 54.9 µL/min/mg and a half-life (in vitro [3]) of 15.6 min. It also gave a half-life (in vitro [4]) of 58.9 min and a half-life (in vitro [5]) of 25.3 min.
